{"source": "patent US8039586B1", "about": "“Cerebral organic anion transporter and its gene” (J-Pharma Co., Ltd., priority 1998, dated 2011)", "target": "T1, rat OAT3 (rk1411) (Rattus norvegicus, UniProt Q9R1U7)", "T1 construct": "cRNA (RNA complementary to cDNA) was prepared in vitro from the plasmid carrying the clone (rk1411); expressed in transfected cells; host or cells: Xenopus oocytes injected with rk1411 cRNA", "T1 sequence (Q9R1U7 1-536)": "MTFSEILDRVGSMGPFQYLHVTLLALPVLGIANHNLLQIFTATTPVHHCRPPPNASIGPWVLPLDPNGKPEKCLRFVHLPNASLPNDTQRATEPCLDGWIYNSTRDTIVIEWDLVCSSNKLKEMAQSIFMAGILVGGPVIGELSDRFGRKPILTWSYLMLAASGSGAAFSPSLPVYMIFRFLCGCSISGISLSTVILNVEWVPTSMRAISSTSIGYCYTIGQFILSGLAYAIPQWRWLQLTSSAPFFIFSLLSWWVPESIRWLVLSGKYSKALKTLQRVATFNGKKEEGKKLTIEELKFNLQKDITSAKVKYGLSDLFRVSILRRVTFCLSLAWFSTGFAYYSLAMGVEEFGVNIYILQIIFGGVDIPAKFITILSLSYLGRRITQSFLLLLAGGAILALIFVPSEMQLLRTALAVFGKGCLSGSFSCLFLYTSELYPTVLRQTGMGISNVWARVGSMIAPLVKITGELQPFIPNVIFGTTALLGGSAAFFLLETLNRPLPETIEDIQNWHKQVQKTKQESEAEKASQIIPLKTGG", "assay": "Inhibition of 3H-estrone sulfate uptake in oocyte injected with rk1411 cRNA", "format": "cell-based", "settings": "1 mM unlabeled compound; Xenopus oocyte; FIG. 3", "data": [{"smiles": "C=C[C@H]1C[N@@]2CC[C@H]1C[C@@H]2[C@@H](O)c1ccnc2ccc(OC)cc12", "note": "[quinidine]", "values": [{"measurement": "inhibition of 3H-estrone sulfate transport with rk1411", "value": "never exerted any such inhibitory action"}]}]}
